# Reference: EP4834897A1, “COMPOUNDS WITH TWO AZAHETEROCYCLES SUBSTITUTED ISOINDOLINONE SKELETON AND USES THEREOF” (dated 2026)
# The chains behind the UniProt entries cited, without tags or fusion partners.
# UniProt P15170, whole entry: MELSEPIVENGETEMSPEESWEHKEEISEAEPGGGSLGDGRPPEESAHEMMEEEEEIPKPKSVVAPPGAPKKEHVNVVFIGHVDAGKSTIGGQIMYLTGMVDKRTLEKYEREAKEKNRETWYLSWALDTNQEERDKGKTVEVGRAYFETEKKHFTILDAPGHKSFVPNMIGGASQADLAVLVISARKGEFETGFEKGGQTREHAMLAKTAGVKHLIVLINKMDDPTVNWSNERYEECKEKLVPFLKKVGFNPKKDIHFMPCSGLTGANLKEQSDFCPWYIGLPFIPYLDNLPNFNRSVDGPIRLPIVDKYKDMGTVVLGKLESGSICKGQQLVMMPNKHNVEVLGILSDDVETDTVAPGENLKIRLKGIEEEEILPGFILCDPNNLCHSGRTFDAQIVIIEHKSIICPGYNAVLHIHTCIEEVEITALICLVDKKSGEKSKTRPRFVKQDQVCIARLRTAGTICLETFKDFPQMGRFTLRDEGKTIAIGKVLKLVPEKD
# UniProt Q96SW2, whole entry: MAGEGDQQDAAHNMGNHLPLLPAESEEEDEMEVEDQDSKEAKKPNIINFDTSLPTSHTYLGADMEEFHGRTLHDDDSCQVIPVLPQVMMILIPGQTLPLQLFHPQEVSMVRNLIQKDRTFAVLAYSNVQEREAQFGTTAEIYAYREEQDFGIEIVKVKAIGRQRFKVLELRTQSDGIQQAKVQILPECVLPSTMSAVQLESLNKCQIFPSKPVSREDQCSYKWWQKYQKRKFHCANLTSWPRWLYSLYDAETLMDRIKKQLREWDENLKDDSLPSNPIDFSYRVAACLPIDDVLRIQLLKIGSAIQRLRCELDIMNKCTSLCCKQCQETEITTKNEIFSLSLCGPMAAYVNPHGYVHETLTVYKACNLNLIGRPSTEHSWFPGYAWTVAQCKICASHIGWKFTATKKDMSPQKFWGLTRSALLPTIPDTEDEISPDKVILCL
# UniProt Q13422, whole entry: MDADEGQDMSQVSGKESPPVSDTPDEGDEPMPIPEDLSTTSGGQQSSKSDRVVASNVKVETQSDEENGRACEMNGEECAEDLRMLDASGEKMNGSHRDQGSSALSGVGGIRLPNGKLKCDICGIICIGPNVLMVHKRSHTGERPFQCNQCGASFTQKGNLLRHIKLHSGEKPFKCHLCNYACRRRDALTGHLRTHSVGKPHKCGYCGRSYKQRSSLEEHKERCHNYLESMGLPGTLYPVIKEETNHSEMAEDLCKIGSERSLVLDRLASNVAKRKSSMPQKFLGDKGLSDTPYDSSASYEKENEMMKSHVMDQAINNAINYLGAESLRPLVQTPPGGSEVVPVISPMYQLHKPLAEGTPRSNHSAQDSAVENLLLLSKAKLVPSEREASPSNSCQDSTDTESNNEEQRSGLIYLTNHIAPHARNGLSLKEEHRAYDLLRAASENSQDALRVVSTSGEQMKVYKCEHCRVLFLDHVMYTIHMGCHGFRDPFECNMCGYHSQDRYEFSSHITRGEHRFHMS
# UniProt P30291, whole entry: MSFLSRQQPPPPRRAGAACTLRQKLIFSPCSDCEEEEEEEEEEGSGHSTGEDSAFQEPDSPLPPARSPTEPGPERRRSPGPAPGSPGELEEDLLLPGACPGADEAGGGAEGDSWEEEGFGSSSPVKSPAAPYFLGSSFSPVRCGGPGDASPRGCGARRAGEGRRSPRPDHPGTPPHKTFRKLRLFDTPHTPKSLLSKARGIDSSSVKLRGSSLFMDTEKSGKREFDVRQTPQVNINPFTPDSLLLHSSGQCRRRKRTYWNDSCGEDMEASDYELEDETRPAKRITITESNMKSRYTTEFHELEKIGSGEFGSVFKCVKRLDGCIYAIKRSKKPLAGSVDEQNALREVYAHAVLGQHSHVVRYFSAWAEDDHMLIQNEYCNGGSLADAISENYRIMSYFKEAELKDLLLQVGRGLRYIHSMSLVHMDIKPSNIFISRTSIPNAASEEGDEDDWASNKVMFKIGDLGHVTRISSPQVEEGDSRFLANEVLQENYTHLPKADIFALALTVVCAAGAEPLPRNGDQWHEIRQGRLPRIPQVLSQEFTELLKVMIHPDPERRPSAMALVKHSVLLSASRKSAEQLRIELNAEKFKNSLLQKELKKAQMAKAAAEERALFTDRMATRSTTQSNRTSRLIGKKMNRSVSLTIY
# UniProt Q9UKT9, whole entry: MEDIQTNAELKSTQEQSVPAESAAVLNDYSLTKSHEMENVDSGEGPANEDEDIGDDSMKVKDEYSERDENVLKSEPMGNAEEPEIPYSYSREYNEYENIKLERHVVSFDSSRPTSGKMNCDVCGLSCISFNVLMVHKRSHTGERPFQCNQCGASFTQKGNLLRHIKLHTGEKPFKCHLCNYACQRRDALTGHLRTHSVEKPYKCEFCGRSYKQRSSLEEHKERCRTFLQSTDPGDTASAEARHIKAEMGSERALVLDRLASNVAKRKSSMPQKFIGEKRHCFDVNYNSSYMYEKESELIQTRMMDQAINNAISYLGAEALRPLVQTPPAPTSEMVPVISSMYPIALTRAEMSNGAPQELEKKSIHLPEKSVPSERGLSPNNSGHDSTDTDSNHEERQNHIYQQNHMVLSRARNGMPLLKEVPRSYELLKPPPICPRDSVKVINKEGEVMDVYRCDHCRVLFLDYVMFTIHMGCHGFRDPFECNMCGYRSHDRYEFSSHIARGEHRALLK
# UniProt Q9UKS7, whole entry: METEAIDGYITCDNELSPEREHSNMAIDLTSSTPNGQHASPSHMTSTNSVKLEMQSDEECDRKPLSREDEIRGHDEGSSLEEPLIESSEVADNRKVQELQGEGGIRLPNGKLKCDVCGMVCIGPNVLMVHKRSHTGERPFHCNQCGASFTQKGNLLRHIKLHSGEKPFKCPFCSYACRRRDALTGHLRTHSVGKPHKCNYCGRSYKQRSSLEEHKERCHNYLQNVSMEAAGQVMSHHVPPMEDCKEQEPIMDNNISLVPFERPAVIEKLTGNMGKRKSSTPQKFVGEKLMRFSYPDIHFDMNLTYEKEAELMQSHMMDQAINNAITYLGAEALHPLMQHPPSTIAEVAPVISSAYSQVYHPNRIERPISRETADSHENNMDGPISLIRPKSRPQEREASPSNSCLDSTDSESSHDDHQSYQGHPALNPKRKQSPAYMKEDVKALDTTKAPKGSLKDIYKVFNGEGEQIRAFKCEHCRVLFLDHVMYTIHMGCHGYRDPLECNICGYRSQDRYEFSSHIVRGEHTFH
# UniProt P48729, whole entry: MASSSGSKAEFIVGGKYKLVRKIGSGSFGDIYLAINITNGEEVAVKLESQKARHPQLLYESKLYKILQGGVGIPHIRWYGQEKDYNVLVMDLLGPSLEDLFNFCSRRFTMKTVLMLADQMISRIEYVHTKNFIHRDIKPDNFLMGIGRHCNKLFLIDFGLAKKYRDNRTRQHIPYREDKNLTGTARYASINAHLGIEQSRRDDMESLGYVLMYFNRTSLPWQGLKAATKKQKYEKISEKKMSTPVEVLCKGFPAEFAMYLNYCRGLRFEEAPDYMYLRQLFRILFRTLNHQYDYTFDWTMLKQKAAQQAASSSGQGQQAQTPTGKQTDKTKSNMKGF
# UniProt Q16531, whole entry partner: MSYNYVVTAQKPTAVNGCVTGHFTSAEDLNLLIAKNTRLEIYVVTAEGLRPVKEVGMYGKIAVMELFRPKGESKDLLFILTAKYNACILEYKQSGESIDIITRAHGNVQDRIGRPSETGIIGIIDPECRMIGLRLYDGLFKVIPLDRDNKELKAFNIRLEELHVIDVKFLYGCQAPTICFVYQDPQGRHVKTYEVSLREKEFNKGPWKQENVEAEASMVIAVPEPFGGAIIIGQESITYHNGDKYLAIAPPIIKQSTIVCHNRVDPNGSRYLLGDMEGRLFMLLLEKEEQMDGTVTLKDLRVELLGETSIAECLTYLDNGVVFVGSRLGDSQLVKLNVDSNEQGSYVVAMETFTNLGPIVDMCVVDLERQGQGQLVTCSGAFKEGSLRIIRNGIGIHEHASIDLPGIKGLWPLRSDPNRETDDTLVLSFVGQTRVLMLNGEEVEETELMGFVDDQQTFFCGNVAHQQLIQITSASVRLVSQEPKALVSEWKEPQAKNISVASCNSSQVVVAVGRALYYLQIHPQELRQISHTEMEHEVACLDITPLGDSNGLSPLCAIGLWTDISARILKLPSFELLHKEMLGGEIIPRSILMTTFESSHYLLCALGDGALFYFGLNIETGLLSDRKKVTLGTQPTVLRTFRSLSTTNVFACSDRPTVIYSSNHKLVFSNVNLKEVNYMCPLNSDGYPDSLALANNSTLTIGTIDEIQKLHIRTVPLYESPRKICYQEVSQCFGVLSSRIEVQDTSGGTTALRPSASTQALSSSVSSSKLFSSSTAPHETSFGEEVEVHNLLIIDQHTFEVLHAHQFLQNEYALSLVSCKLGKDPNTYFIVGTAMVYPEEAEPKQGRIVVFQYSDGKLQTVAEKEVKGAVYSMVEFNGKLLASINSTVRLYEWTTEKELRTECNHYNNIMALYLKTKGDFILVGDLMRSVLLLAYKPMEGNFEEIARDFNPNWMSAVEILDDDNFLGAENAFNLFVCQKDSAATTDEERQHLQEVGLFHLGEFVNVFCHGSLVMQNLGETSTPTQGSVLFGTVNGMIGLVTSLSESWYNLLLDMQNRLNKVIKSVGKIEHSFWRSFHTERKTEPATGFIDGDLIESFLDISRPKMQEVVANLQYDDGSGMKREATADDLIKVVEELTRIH
# Test system: IL-2
# Experiment: Inflammatory cytokine release from PBMCs induced by PHA (flow cytometry CBA)
# Details: 0.1 µM; PBMCs, PHA 1 µg/mL, 24 h
row,Compound,Inhibition Rate (%) IL-2
1,O=C1CCC(N2Cc3cc(C(=O)N4CCC(N5CCN(C(c6ccccc6)c6ccccc6)CC5)C(F)(F)C4)c(F)cc3C2=O)C(=O)N1 (stereo not drawn),IV10 (50% < IV 10 ≤ 60%)

# Same assay, conditions: 1 µM; PBMCs, PHA 1 µg/mL, 24 h
row,Compound,Inhibition Rate (%) IL-2
1,O=C1CCC(N2Cc3cc(C(=O)N4CCC(N5CCN(C(c6ccccc6)c6ccccc6)CC5)C(F)(F)C4)c(F)cc3C2=O)C(=O)N1 (stereo not drawn),IV1 0

# Target: GSPT1 (Homo sapiens, UniProt P15170+Q96SW2)
# Experiment: Western blot assay of substrate protein degradation in hPBMCs
# Details: 24 hours treatment, compounds at 50 nM and 500 nM (concentration behind the class not stated)
row,Compound,substrate protein remaining % (GSPT1)
1,O=C1CCC(N2Cc3cc(C(=O)N4CCC(N5CC=C(c6cccc(Cl)c6Cl)CC5)C(F)(F)C4)c(F)cc3C2=O)C(=O)N1 (stereo not drawn),A (0% ≤ substrate protein remaining % ≤ 80%)

# Target: IKZF1 (Homo sapiens, UniProt Q13422+Q96SW2)
# Experiment: as above
# Details: 24 hours treatment, compounds at 50 nM and 500 nM (concentration behind the class not stated)
row,Compound,substrate protein remaining % (IKZF 1)
1,O=C1CCC(N2Cc3cc(C(=O)N4CCC(N5CC=C(c6cccc(Cl)c6Cl)CC5)C(F)(F)C4)c(F)cc3C2=O)C(=O)N1 (stereo not drawn),A (0% ≤ substrate protein remaining % ≤ 80%)

# Target: WEE1 (Homo sapiens, UniProt P30291+Q96SW2)
# Experiment: as above
# Details: 24 hours treatment, compounds at 50 nM and 500 nM (concentration behind the class not stated)
row,Compound,substrate protein remaining % (WEE1)
1,O=C1CCC(N2Cc3cc(C(=O)N4CCC(N5CC=C(c6cccc(Cl)c6Cl)CC5)C(F)(F)C4)c(F)cc3C2=O)C(=O)N1 (stereo not drawn),A (0% ≤ substrate protein remaining % ≤ 80%)

# Target: IKZF3 (Homo sapiens, UniProt Q96SW2+Q9UKT9)
# Experiment: as above
# Details: 24 hours treatment, compounds at 50 nM and 500 nM (concentration behind the class not stated)
row,Compound,substrate protein remaining % (IKZF3)
1,O=C1CCC(N2Cc3cc(C(=O)N4CCC(N5CC=C(c6cccc(Cl)c6Cl)CC5)C(F)(F)C4)c(F)cc3C2=O)C(=O)N1 (stereo not drawn),A (0% ≤ substrate protein remaining % ≤ 80%)

# Target: IKZF2 (Homo sapiens, UniProt Q96SW2+Q9UKS7)
# Experiment: as above
# Details: 24 hours treatment, compounds at 50 nM and 500 nM (concentration behind the class not stated)
row,Compound,substrate protein remaining % (IKZF2)
1,O=C1CCC(N2Cc3cc(C(=O)N4CCC(N5CC=C(c6cccc(Cl)c6Cl)CC5)C(F)(F)C4)c(F)cc3C2=O)C(=O)N1 (stereo not drawn),A (0% ≤ substrate protein remaining % ≤ 80%)

# Target: CK1α (Homo sapiens, UniProt P48729+Q96SW2)
# Experiment: as above
# Details: 24 hours treatment, compounds at 50 nM and 500 nM (concentration behind the class not stated)
row,Compound,substrate protein remaining % (CK1a)
1,O=C1CCC(N2Cc3cc(C(=O)N4CCC(N5CC=C(c6cccc(Cl)c6Cl)CC5)C(F)(F)C4)c(F)cc3C2=O)C(=O)N1 (stereo not drawn),A (0% ≤ substrate protein remaining % ≤ 80%)

# Test system: Human myeloid monocytic leukemia cell (MV-4-11)
# Experiment: Tumor cell proliferation inhibition (cell viability assay)
# Details: MV-4-11 cells; 10 nM; 96 hours
row,Compound,Inhibition Rate at 10 nM (%)
1,O=C1CCC(N2Cc3cc(C(=O)N4CCC(N5CC=C(c6cccc(Cl)c6Cl)CC5)C(F)(F)C4)c(F)cc3C2=O)C(=O)N1 (stereo not drawn),1a5 (30% ≤ 1a5 ≤ 40%)
2,O=C1CCC(N2Cc3cc(C(=O)N4CCC(N5CCN(C(c6ccccc6)c6ccccc6)CC5)C(F)(F)C4)c(F)cc3C2=O)C(=O)N1 (stereo not drawn),1a3 (10% ≤ 1a3 < 20%)

# Same assay, conditions: MV-4-11 cells; 500 nM; 96 hours
row,Compound,Inhibition Rate at 500 nM (%)
1,O=C1CCC(N2Cc3cc(C(=O)N4CCC(N5CC=C(c6cccc(Cl)c6Cl)CC5)C(F)(F)C4)c(F)cc3C2=O)C(=O)N1 (stereo not drawn),1a10 (80% ≤ 1a10 < 100%)
2,O=C1CCC(N2Cc3cc(C(=O)N4CCC(N5CCN(C(c6ccccc6)c6ccccc6)CC5)C(F)(F)C4)c(F)cc3C2=O)C(=O)N1 (stereo not drawn),1a7 (50% ≤ 1a7 < 60%)

# Test system: Human acute T lymphocytic leukemia cell (Molt4)
# Experiment: as above
# Details: Molt4 cells; 10 nM; 96 hours
row,Compound,Inhibition Rate at 10 nM (%)
1,O=C1CCC(N2Cc3cc(C(=O)N4CCC(N5CC=C(c6cccc(Cl)c6Cl)CC5)C(F)(F)C4)c(F)cc3C2=O)C(=O)N1 (stereo not drawn),1c5 (20% ≤ 1c5 < 30%)
2,O=C1CCC(N2Cc3cc(C(=O)N4CCC(N5CCN(C(c6ccccc6)c6ccccc6)CC5)C(F)(F)C4)c(F)cc3C2=O)C(=O)N1 (stereo not drawn),1c2 (0 < 1c2 < 5%)

# Same assay, conditions: Molt4 cells; 500 nM; 96 hours
row,Compound,Inhibition Rate at 500 nM (%)
1,O=C1CCC(N2Cc3cc(C(=O)N4CCC(N5CC=C(c6cccc(Cl)c6Cl)CC5)C(F)(F)C4)c(F)cc3C2=O)C(=O)N1 (stereo not drawn),1c11 (80% ≤ 1c11 ≤ 100%)
2,O=C1CCC(N2Cc3cc(C(=O)N4CCC(N5CCN(C(c6ccccc6)c6ccccc6)CC5)C(F)(F)C4)c(F)cc3C2=O)C(=O)N1 (stereo not drawn),1c7 (40% ≤ 1c7 < 50%)

# Test system: Human colon cancer cell (SW620)
# Experiment: as above
# Details: SW620 cells; 10 nM; 96 hours
row,Compound,Inhibition Rate at 10 nM (%)
1,O=C1CCC(N2Cc3cc(C(=O)N4CCC(N5CC=C(c6cccc(Cl)c6Cl)CC5)C(F)(F)C4)c(F)cc3C2=O)C(=O)N1 (stereo not drawn),1d2 (5% ≤ 1d2 < 10%)

# Same assay, conditions: SW620 cells; 500 nM; 96 hours
row,Compound,Inhibition Rate at 500 nM (%)
1,O=C1CCC(N2Cc3cc(C(=O)N4CCC(N5CC=C(c6cccc(Cl)c6Cl)CC5)C(F)(F)C4)c(F)cc3C2=O)C(=O)N1 (stereo not drawn),1d6 (40% ≤ 1d6 < 50%)

# Test system: Human multiple myeloma cell (MM.1S)
# Experiment: as above
# Details: MM.1S cells; 10 nM; 96 hours
row,Compound,Inhibition Rate at 10 nM (%)
1,O=C1CCC(N2Cc3cc(C(=O)N4CCC(N5CC=C(c6cccc(Cl)c6Cl)CC5)C(F)(F)C4)c(F)cc3C2=O)C(=O)N1 (stereo not drawn),1b5 (32% ≤ 1b5 < 42%)

# Same assay, conditions: MM.1S cells; 500 nM; 96 hours
row,Compound,Inhibition Rate at 500 nM (%)
1,O=C1CCC(N2Cc3cc(C(=O)N4CCC(N5CC=C(c6cccc(Cl)c6Cl)CC5)C(F)(F)C4)c(F)cc3C2=O)C(=O)N1 (stereo not drawn),1b10 (80% ≤ 1b10 ≤ 100%)

# Target: CRBN (Homo sapiens, UniProt Q96SW2)
# Experiment: CRBN binding affinity by HTRF (CEREBLON BINDING kit)
# Details: CRBN binding, HTRF, compound at 0.5 µM
row,Compound,Inhibition Rate at 0.5 µM (%)
1,O=C1CCC(N2Cc3cc(C(=O)N4CCC(N5CC=C(c6cccc(Cl)c6Cl)CC5)C(F)(F)C4)c(F)cc3C2=O)C(=O)N1 (stereo not drawn),a3 (30% < a3 ≤ 40%)
2,O=C1CCC(N2Cc3cc(C(=O)N4CCC(N5CCN(C(c6ccccc6)c6ccccc6)CC5)C(F)(F)C4)c(F)cc3C2=O)C(=O)N1 (stereo not drawn),a3 (30% < a3 ≤ 40%)

# Same assay, conditions: CRBN binding, HTRF, compound at 2 µM
row,Compound,Inhibition Rate at 2 µM (%)
1,O=C1CCC(N2Cc3cc(C(=O)N4CCC(N5CC=C(c6cccc(Cl)c6Cl)CC5)C(F)(F)C4)c(F)cc3C2=O)C(=O)N1 (stereo not drawn),a6 (60% < a6 ≤ 70%)
2,O=C1CCC(N2Cc3cc(C(=O)N4CCC(N5CCN(C(c6ccccc6)c6ccccc6)CC5)C(F)(F)C4)c(F)cc3C2=O)C(=O)N1 (stereo not drawn),a6 (60% < a6 ≤ 70%)
